Laboratory results published in ChEMBL document CHEMBL4414561, “Cholinesterase Inhibitory Arisugacins L-Q from a Penicillium sp. Isolate Obtained through a Citizen Science Initiative and Their Activities in a Phenotype-Based Zebrafish Assay” (J Nat Prod, 2019).

Protein sequences, listed by entry. Tags and fused reporters are not part of them. Lines headed by an entry give the natural chain unless they say otherwise; changes in a name come on top.
UniProt O42275: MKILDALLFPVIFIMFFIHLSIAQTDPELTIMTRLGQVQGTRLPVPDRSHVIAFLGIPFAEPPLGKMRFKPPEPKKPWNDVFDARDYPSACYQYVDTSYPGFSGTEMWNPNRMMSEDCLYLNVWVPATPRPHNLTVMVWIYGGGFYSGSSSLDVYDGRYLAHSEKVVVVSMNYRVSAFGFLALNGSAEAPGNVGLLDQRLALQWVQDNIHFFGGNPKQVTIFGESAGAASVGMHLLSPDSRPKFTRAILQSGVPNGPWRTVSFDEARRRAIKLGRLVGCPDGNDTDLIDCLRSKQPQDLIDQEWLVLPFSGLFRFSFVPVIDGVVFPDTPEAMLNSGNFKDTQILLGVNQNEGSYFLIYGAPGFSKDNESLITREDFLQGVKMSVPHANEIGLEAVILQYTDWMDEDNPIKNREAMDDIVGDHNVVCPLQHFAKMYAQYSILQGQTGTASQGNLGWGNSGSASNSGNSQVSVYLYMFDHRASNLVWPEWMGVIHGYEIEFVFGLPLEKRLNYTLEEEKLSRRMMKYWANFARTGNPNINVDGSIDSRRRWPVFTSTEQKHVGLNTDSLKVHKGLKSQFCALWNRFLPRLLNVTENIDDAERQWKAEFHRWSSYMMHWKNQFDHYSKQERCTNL

Biological target: Acetylcholinesterase (Electrophorus electricus, UniProt O42275)
Experiment: Inhibition of electric eel AChE incubated for 15 mins by Ellman's method
In short: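 Colorimetric kit assay with Electrophorus electricus AChE. Compound is incubated with enzyme for 15 min. Assay buffer containing AChE substrate and DTNB is then added, and absorbance is read at 0 and 15 min. Single-point screen at 50 μM; IC50 also determined.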

CNC(=O)Oc1ccc2c(c1)[C@]1(C)CCN(C)[C@@H]1N2C [PHYSOSTIGMINE]
IC50: 7.8 nM
